From PubChem BioAssay AID887 (National Center for Advancing Translational Sciences (NCATS), 2007) come the findings set out here.

Protein sequences, listed by entry. Tags and fused reporters are not part of them.
UniProt P16050, whole entry: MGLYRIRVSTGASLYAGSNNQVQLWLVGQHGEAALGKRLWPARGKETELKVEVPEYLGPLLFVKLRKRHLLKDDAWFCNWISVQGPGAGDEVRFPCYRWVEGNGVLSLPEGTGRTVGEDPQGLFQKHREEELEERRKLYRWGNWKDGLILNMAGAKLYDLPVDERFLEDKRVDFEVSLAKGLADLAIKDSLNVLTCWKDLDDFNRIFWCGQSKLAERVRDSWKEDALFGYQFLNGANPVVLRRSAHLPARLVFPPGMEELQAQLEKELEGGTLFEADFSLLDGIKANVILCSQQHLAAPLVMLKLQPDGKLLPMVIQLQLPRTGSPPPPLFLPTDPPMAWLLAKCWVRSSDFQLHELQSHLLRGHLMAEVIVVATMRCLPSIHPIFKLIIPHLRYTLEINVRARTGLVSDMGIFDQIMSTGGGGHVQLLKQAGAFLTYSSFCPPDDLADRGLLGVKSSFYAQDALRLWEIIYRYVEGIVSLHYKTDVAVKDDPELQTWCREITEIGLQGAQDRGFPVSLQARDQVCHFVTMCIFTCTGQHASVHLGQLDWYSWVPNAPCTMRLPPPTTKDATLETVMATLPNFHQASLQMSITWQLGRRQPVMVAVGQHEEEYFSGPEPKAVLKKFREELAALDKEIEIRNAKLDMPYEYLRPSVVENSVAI

Only a part is listed here, and it is no random draw. Results filed as inconclusive are left out. Calls of active or inactive are those of the source. The call rests on the fitted dose curve; in most records, active means well fitted inhibition curve with a large enough effect; inconclusive means small, poorly fitted or top-dose-only effect; inactive means no such curve, though single readings can be large or run the other way.
On the % scale 0 is the no-effect control and ±100 the full control effect.

The experiment addresses Polyunsaturated fatty acid lipoxygenase ALOX15 (Homo sapiens) (UniProt P16050). Briefly: qHTS Assay for Inhibitors of 15-hLO (15-human lipoxygenase). Further: nearly all actives have a fitted effect of over 55% in size. The following applies: purified 15hLO-1, xylenol orange hydroperoxide absorbance; at 57.1 µM (top of the series) unless noted. On the technique in general: In qHTS, concentration-response curves come from the screen itself.
Turning to `COc1ccc(NC2CCN(CCc3ccccc3)CC2)c(OC)c1`, the activity change, negative = inhibition was inactive: -26.1%.
In the case of `O=C(OC1CN2CCC1CC2)C1c2ccccc2Oc2ccccc21` (stereo unspecified), the activity change, negative = inhibition is inactive: -0.0659%.
For `CCOP(=O)(Cl)Cl` the value was inactive: -16.9%.
In the case of `NC1CCCCC1.NP(=O)(O)N(CCCl)CCCl`, the activity change, negative = inhibition is inactive: 10.2% [at 11.4 µM].
With `N#CC1(Nc2ccccc2)CCN(CCc2ccccc2)CC1`, the activity change, negative = inhibition is inactive: 7.18%.
Turning to `ClCCOP(OCCCl)OCCCl`, the activity change, negative = inhibition was inactive: -5.47%.
For `N/C(=N\O)c1c(N)no[n+]1[O-]` the value was inactive: 8.27%; for `CCOc1ncccc1C(=O)NCC1(N2CCOCC2)CCCCC1`, inactive: 2.08%; for `O=C(O)C1(Nc2ccccc2)CCN(Cc2ccccc2)CC1`, inactive: 4.52% [at 11.4 µM].
Consider `CCC(CO)(C(=O)OC1CN2CCC1CC2)c1ccccc1` (stereo unspecified), for which the activity change, negative = inhibition was inactive: -0.339%.
`Fc1ccccc1NC1CCN(Cc2ccccc2)CC1`: the activity change, negative = inhibition was inactive: -9.76%.
